{"source": "paper PMC5700161", "about": "“Structure of human immunoproteasome with a reversible and noncompetitive inhibitor that selectively inhibits activated lymphocytes” (Nature Communications, 2017)", "key": {"[1]": {"molecular_target": "β2i (Homo sapiens, UniProt P40306)", "experiment": "IC50 against β2i of human immunoproteasome (Z-VLR-AMC)", "conditions": "read-out: IC50 2i - VLR (β2i), substrate Z-VLR-AMC"}, "[2]": {"molecular_target": "β1c (Homo sapiens, UniProt P28072)", "experiment": "IC50 against β1c of human constitutive proteasome (Z-LLE-AMC)", "conditions": "read-out: IC50 1c - LLE (β1c), substrate Z-LLE-AMC"}, "[3]": {"molecular_target": "β2c (Homo sapiens, UniProt Q99436)", "experiment": "IC50 against β2c of human constitutive proteasome (Z-VLR-AMC)", "conditions": "read-out: IC50 2c - VLR (β2c), substrate Z-VLR-AMC"}, "[4]": {"molecular_target": "β1i (Homo sapiens, UniProt P28065)", "experiment": "IC50 against β1i of human immunoproteasome (Ac-PAL-AMC)", "conditions": "read-out: IC50 1i - PAL (β1i), substrate Ac-PAL-AMC"}, "[5]": {"molecular_target": "human β5c (Homo sapiens, UniProt P20618+P28074)", "experiment": "IC50 determination against human β5c of c-20S"}, "[6]": {"molecular_target": "human β5i (Homo sapiens, UniProt P20618+P28062)", "experiment": "IC50 determination against human β5i of i-20S"}}, "note": "Where two headings read alike, the source gives them in different places.", "data": [{"smiles": "CC(C)(C)NC(=O)C[C@H](N)C(=O)NCCNC(=O)c1cc(-c2ccccc2F)ccc1F", "values": [{"measurement": "IC50", "setting": "[1]; tested form: TFA", "result": "> 50", "unit": "µM"}, {"measurement": "IC50", "setting": "[2]; tested form: TFA", "result": "> 50", "unit": "µM"}, {"measurement": "IC50", "setting": "[3]; tested form: TFA", "result": "> 50", "unit": "µM"}, {"measurement": "IC50", "setting": "[4]; tested form: TFA", "result": "> 50", "unit": "µM"}]}, {"smiles": "CC(C)(C)NC(=O)C[C@H](NC(=O)CCc1ccccc1)C(=O)NCCCNC(=O)c1cccc(-c2ccccc2)c1", "values": [{"measurement": "IC50", "setting": "[1]", "result": "> 50", "unit": "µM"}, {"measurement": "IC50", "setting": "[2]", "result": "> 50", "unit": "µM"}, {"measurement": "IC50", "setting": "[3]", "result": "> 50", "unit": "µM"}, {"measurement": "IC50", "setting": "[4]", "result": "> 50", "unit": "µM"}]}, {"smiles": "CC(C)(C)OC(=O)NCC(=O)NCCNC(=O)c1cc(-c2ccccc2F)ccc1F", "values": [{"measurement": "IC50", "setting": "[1]", "result": "> 50", "unit": "µM"}, {"measurement": "inhibitory activity against β5c (in words)", "setting": "[5]", "result": "abolished the inhibitory activities"}, {"measurement": "IC50", "setting": "[2]", "result": "> 50", "unit": "µM"}, {"measurement": "IC50", "setting": "[3]", "result": "> 50", "unit": "µM"}, {"measurement": "inhibitory activity against β5i (in words)", "setting": "[6]", "result": "abolished the inhibitory activities"}, {"measurement": "IC50", "setting": "[4]", "result": "> 50", "unit": "µM"}]}, {"smiles": "Cc1cc(C(=O)N[C@@H](CC(=O)NC(C)(C)C)C(=O)NCCNC(=O)c2cc(-c3ccccc3F)ccc2F)no1", "values": [{"measurement": "IC50", "setting": "[1]", "result": "> 50", "unit": "µM"}, {"measurement": "IC50", "setting": "[2]", "result": "> 50", "unit": "µM"}, {"measurement": "IC50", "setting": "[3]", "result": "> 50", "unit": "µM"}, {"measurement": "IC50", "setting": "[4]", "result": "> 50", "unit": "µM"}]}, {"smiles": "C[C@H](NC(=O)OC(C)(C)C)C(=O)NCCNC(=O)c1cc(-c2ccccc2F)ccc1F", "values": [{"measurement": "IC50", "setting": "[1]", "result": "> 50", "unit": "µM"}, {"measurement": "inhibitory activity against β5c (in words)", "setting": "[5]", "result": "abolished the inhibitory activities"}, {"measurement": "IC50", "setting": "[2]", "result": "> 50", "unit": "µM"}, {"measurement": "IC50", "setting": "[3]", "result": "> 50", "unit": "µM"}, {"measurement": "inhibitory activity against β5i (in words)", "setting": "[6]", "result": "abolished the inhibitory activities"}, {"measurement": "IC50", "setting": "[4]", "result": "> 50", "unit": "µM"}]}]}
